From article PMC7545175 (Scientific Reports, 2020)

By UniProt entry, the sequences of proteins in these tests, tags left out.
UniProt P33535, whole entry: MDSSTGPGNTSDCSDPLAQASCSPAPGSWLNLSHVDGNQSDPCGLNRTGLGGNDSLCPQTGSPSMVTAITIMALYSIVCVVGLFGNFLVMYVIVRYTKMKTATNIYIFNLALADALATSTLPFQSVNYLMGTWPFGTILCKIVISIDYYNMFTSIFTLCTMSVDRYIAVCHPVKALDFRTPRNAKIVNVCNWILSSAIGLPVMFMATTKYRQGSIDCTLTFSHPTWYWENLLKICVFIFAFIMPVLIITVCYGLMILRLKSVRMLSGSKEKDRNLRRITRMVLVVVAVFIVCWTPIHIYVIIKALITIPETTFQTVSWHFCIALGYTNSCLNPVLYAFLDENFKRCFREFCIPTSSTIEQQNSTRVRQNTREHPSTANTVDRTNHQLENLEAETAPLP

Molecular target: mu opioid receptor (MOR) (Rattus norvegicus, UniProt P33535)
Experiment: [[…] radioligand binding assay, HEK-MOR membranes
Details: read-out: Kd value in MOR, used for the Ki calculation

[3H]diprenorphine
pKd: 9.40

pKd: −log10 of the molar value. Some compounds may have been tested in ways that are not shown here.
